Source: ChEMBL document CHEMBL1126524, “Derivatives of quinuclidine as 5-HT3 receptor antagonists: influence of an additional carbonyl group on the recognition of chirality by the receptor” (Bioorg Med Chem Lett, 1993)
pKi: −log10 of the molar value.

Amino acid sequences for entries named in this document (tags omitted). Residues count along the entry.
UniProt P35563, 24-483 limits assumed: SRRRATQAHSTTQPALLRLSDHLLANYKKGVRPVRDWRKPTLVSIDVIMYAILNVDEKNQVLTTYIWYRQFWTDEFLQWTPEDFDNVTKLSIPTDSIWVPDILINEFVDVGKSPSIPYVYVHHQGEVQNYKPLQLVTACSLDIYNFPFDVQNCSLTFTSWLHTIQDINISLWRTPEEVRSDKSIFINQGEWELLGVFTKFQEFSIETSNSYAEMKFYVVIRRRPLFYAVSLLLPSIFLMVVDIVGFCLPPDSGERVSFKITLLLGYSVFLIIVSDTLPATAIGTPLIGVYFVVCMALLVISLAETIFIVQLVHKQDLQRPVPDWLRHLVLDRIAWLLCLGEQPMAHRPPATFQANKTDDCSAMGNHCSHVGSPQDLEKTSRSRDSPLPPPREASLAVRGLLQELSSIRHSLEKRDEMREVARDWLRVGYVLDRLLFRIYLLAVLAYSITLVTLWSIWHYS
UniProt Q9JJ16, 22-437 limits assumed: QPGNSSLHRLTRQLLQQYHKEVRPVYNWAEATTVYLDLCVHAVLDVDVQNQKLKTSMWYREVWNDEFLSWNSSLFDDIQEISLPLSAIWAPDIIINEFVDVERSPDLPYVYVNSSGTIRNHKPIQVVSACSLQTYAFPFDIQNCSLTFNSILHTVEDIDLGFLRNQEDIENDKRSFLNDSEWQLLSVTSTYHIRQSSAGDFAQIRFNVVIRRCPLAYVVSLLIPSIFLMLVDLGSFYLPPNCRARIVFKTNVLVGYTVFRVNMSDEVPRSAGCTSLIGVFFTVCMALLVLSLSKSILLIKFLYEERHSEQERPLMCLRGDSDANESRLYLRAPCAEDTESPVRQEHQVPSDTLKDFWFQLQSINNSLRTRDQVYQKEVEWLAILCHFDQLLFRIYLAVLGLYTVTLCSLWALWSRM

Target: Serotonin 3 (5-HT3) receptor (Rattus norvegicus, UniProt P35563+Q9JJ16)
Assay: Binding affinity at 5-hydroxytryptamine 3 receptor in rat entorhinal cortex by [3H]BRL-43694 displacement.

| Compound | pKi |
| --- | --- |
| COc1cc(N)c(Cl)cc1C(=O)O[C@@H]1CN2CCC1CC2 | 9.15 |
| COc1cc(N)c(Cl)cc1C(=O)O[C@H]1CN2CCC1CC2 | 8.44 |
